Assay results taken from US20090196918A1, “Liposomal formulations of hydrophobic lactone drugs in the presence of metal ions” (University of Kentucky Research Foundation, priority 2008, published 2009).

Experiment: Maximum tolerated dose of DB-67 by the intravenous route
Settings: for 5 days

CC[C@@]1(O)C(=O)OCc2c1cc1n(c2=O)Cc2c-1nc1ccc(O)cc1c2[Si](C)(C)C(C)(C)C [DB-67, 7-t-butyldimethylsilyl-10-hydroxycamptothecin]
maximum tolerated dose (MTD): 7.5 mg/kg/day
